Source: patent US20060094649A1, “Hla-a1,-a2,-a3,-a24,-b7, and-b44 tumor associated antigen peptides and compositions” (priority 2002, published 2006)
Like-named read-outs stand apart in the source and are kept apart here.

What was measured:
[1] = tested on: HLA-B44 supertype molecules; assay: HLA-B44 supertype cross-binding; design: species or system human; details: number of the six B44 supertype alleles bound
[2] = biological target: HLA-B*4501 (Homo sapiens, UniProt P01889, A329T/A65T/A93T/A95T/C349S/D138N/D201E/D98Y/E176V/E187L/E204Q/E69K/H137Y/K202T/L119W/N87E/Q56L/Q94N/R155S/R180D/S121R/S35A/S48T/V127L/V306I/V36M/W191S/Y140L/Y33H/Y91S); assay: Class I peptide-binding assay, HLA-B*4501 (B44 supertype); details: read-out: B*4501
[3] = biological target: HLA-B*4002 (Homo sapiens, UniProt P01889, A65T/A93T/A95T/D138N/D201E/D98Y/E176V/E204Q/E69K/K202T/N87E/Q56L/Q94N/R180L/S48T/Y33H/Y91S); assay: Class I peptide-binding assay, HLA-B*4002 (B44 supertype); details: p53-derived B44 peptides, Table 28; dash cells; read-out: B*4002
[4] = p53-derived B44 peptides, Table 28, dash cells

Row | Degeneracy [1] | IC50 ([2]; CEA-derived B44 peptides) | IC50 [2, 4] | SMILES | also measured
1 | 3 | > 10 µM | – | CC[C@H](C)[C@H](NC(=O)[C@@H](NC(=O)[C@H](CCC(N)=O)NC(=O)[C@H](CCCNC(=N)N)NC(=O)[C@H](CC(N)=O)NC(=O)CNC(=O)[C@H](CC(=O)O)NC(=O)[C@@H](NC(=O)[C@H](CCCNC(=N)N)NC(=O)[C@H](CCC(=O)O)NC(=O)CN)C(C)C)[C@@H](C)CC)C(=O)O | –
2 | 0 | > 10 µM | – | CC(C)C[C@H](NC(=O)[C@H](C)NC(=O)[C@@H](NC(=O)[C@H](C)NC(=O)[C@H](CC(=O)O)NC(=O)[C@H](CCC(=O)O)NC(=O)[C@H](CC(=O)O)NC(=O)[C@H](CCC(=O)O)NC(=O)[C@@H](N)C(C)C)C(C)C)C(=O)N[C@H](C(=O)O)[C@@H](C)O | –
3 | 2 | > 10 µM | – | CC(C)[C@H](N)C(=O)N[C@@H](CCC(=O)O)C(=O)N[C@@H](CC(=O)O)C(=O)N[C@@H](CCCCN)C(=O)N[C@@H](CC(=O)O)C(=O)N[C@@H](C)C(=O)N[C@H](C(=O)N[C@@H](C)C(=O)N[C@@H](Cc1ccccc1)C(=O)O)C(C)C | –
4 | 0 | > 10 µM | – | CC(C)[C@H](N)C(=O)N[C@@H](CCC(=O)O)C(=O)N[C@@H](CC(=O)O)C(=O)N[C@@H](CCCCN)C(=O)N[C@@H](CC(=O)O)C(=O)N[C@@H](C)C(=O)N[C@H](C(=O)N[C@@H](C)C(=O)N[C@@H](Cc1ccccc1)C(=O)N[C@H](C(=O)O)[C@@H](C)O)C(C)C | –
5 | 2 | > 10 µM | – | CC(C)C[C@H](NC(=O)[C@H](C)NC(=O)[C@@H](NC(=O)[C@H](C)NC(=O)[C@H](CC(=O)O)NC(=O)[C@H](CCC(=O)O)NC(=O)[C@H](CC(=O)O)NC(=O)[C@H](CCC(=O)O)NC(=O)[C@@H](N)C(C)C)C(C)C)C(=O)O [VEDEDAVAL] | –
6 | – | – | > 10 µM | CC(C)C[C@H](NC(=O)[C@H](CC(N)=O)NC(=O)CNC(=O)[C@H](CCC(=O)O)NC(=O)[C@@H](N)C(C)C)C(=O)N[C@@H](CCCNC(=N)N)C(=O)N[C@H](C(=O)N[C@@H](CCC(=O)O)C(=O)N[C@@H](Cc1ccc(O)cc1)C(=O)O)C(C)C [compound 627] | IC50 [3]: > 10 µM

More lines, now with the values behind:

Row | SMILES | Degeneracy [1] | IC50 ([2]; CEA-derived B44 peptides) | IC50 [2, 4] | also measured
7 | CC(C)[C@H](NC(=O)[C@@H]1CCCN1C(=O)[C@H](CC(N)=O)NC(=O)[C@H](CCC(N)=O)NC(=O)[C@@H](NC(=O)[C@H](CCC(=O)O)NC(=O)[C@@H](N)CS)[C@@H](C)O)C(=O)O [CETQNPV] | 0 | > 10 µM | – | –
8 | CC[C@H](C)[C@H](NC(=O)[C@H](CC(N)=O)NC(=O)[C@H](C)NC(=O)[C@H](CO)NC(=O)[C@@H](NC(=O)[C@@H](NC(=O)[C@H](C)NC(=O)[C@H](CCCNC(=N)N)NC(=O)[C@@H](NC(=O)[C@H](CCC(=O)O)NC(=O)[C@@H](N)CCCNC(=N)N)C(C)C)C(C)C)[C@@H](C)O)C(=O)O [compound 482] | 4 | – | – | IC50 ([2]; HER2/neu-derived B44 peptides, Table 27, binding to purified HLA-B*4501): 0.421 µM
9 | CC(C)C[C@H](NC(=O)[C@@H]1CCCN1C(=O)[C@@H]1CCCN1C(=O)[C@H](CCC(=O)O)NC(=O)[C@@H](N)C(C)C)C(=O)N[C@@H](CO)C(=O)N[C@@H](CCC(N)=O)C(=O)N[C@@H](CCC(=O)O)C(=O)N[C@H](C(=O)O)[C@@H](C)O [compound 622] | – | – | > 10 µM | IC50 [3]: > 10 µM
10 | CC(C)C[C@H](NC(=O)[C@@H]1CCCN1C(=O)[C@H](CO)NC(=O)[C@H](CC(C)C)NC(=O)[C@@H](NC(=O)[C@H](CC(N)=O)NC(=O)[C@H](CC(N)=O)NC(=O)[C@H](CCC(=O)O)NC(=O)[C@@H]1CCCN1)C(C)C)C(=O)O [compound 625] | – | – | > 10 µM | –
11 | CC(C)[C@H](NC(=O)[C@H](CCC(=O)O)NC(=O)[C@@H]1CCCN1)C(=O)NCC(=O)N[C@@H](CO)C(=O)N[C@@H](CC(=O)O)C(=O)N[C@@H](CS)C(=O)N[C@H](C(=O)N[C@H](C(=O)O)[C@@H](C)O)[C@@H](C)O [compound 642] | – | – | > 10 µM | IC50 [3]: > 10 µM; Degeneracy ([1]; p53-derived B44 peptides, Table 28): 0
